Only a part is listed here, and it is no random draw. More than one record can exist for a structure, and the calls need not agree. The source made the active and inactive calls. Cut-off read from the data, not from the text of the source: active = growth inhibition above about 70%; inactive = the rest.
Assay: NCI Yeast Anticancer Drug Screen. Data for the mgt1 strain (AID 153)
Details: S. cerevisiae mgt1 mutant growth inhibition, active compounds read high
Description: Growth inhibition of yeast strains with defined genetic alterations is measured as a screen for potential anti-cancer activity. Selected strains with alterations in DNA damage repair or cell cycle control were exposed to compounds and growth inhibition was measured relative to vehicle treated controls. The strain used in this assay is mgt1

| Compound | growth inhibition (at 1.2 µM) | growth inhibition (at 3.7 µM) | growth inhibition (at 11.0 µM) | growth inhibition (at 33.0 µM) | growth inhibition (at 100.0 µM) |
| --- | --- | --- | --- | --- | --- |
| FC1(F)SC2C(C1(F)F)C1(Cl)C(Cl)=C(Cl)C2(Cl)C1(Cl)Cl (stereo not given) | inactive: 16% | active: 96% | active: 99% | active: 99% | active: 98% |
| O=[N+]([O-])c1cc([N+](=O)[O-])c2nsnc2c1 | inactive: -4% | inactive: -1% | active: 100% | active: 99% | active: 99% |
| NC(Cc1cnc[nH]1)C(=O)O (stereo not given) | inactive: 0% | inactive: 2% | active: 90% | active: 98% | active: 98% |
| O=C1OC(C(Cl)(Cl)Cl)Sc2ccccc21 (stereo not given) | inactive: -2% | inactive: 1% | inactive: 3% | inactive: 27% | inactive: 13% |
| COc1cccc(C[N+](C)(CCCl)CCCl)c1[N+](=O)[O-] | inactive: -19% | inactive: -23% | inactive: -23% | inactive: -23% | inactive: 1% |
| N#Cc1cc([N+](=O)[O-])cc([N+](=O)[O-])c1N | inactive: 8% | inactive: 16% | inactive: 26% | inactive: 55% | active: 80% |
| CC(C)c1nc(Nc2ccccc2)n(P(=O)(N(C)C)N(C)C)n1 | inactive: 9% | inactive: 20% | inactive: 14% | inactive: 41% | active: 94% |

Reference: PubChem BioAssay (NCI)
